The test system of one data set is morphine-pelleted mice. In words: Opioid withdrawal study in morphine-pelleted mice. Conditions: s.c.; for paw tremoring: 25 at 5 mg/kg, 31 all doses. Type of data set: in vivo, mouse.
A short description of a further data set: in vivo. The following applies: Swiss Webster, mouse, sc, 10 mg/kg.

The structures appear in SMILES notation.

This note sets out measurements from paper PMC10149103 (Journal of medicinal chemistry, 2022).

With `Cl.O=C(N[C@H]1CC[C@@]2(O)[C@H]3Cc4ccc(O)c5c4[C@@]2(CCN3CC2CC2)[C@H]1O5)c1ccsc1` [Compound 31, 17-Cyclopropylmethyl-3,14β-dihydroxy-4,5α-epoxy-6α-(3′thienylcarboxamido)morphinan Hydrochloride], in the data set with morphine-pelleted mice, the “dose at which wet dog shakes and jumps started to show” value was 5 mg/kg; the paw tremoring entry is listed as “remained mild through all doses”.

`Cl.O=C(N[C@H]1CC[C@@]2(O)[C@H]3Cc4ccc(O)c5c4[C@@]2(CCN3CC2CC2)[C@H]1O5)c1cccs1` [Compound 25, 17-Cyclopropylmethyl-3, 14β-dihydroxy-4,5α-epoxy-6α-(2′-thienylcarboxamido)morphinan Hydrochloride]: the concentration at 5 min in the data set “in vivo” is 4130 ng/mL. In addition, in the data set on morphine-pelleted mice, the “dose at which wet dog shakes and jumps started to show” value is reported as 5 mg/kg; the paw tremoring result is reported as “noteworthy”.

For `Cl.O=C(N[C@@H]1CC[C@@]2(O)[C@H]3Cc4ccc(O)c5c4[C@@]2(CCN3CC2CC2)[C@H]1O5)c1cccs1` [Compound 26, 17-Cyclopropylmethyl-3,14β-dihydroxy-4,5α-epoxy-6β-(2′thienylcarboxamido)morphinan Hydrochloride], in the data set on morphine-pelleted mice (dose as high as 10 times that of NLX), the “precipitation of withdrawal symptoms at high dose” value is on record as “did not precipitate significant withdrawal symptoms”.
